Assay results as given in patent publication EP1614683B1, “Indazole compounds and pharmaceutical compositions for inhibiting protein kinases, and methods for their use” (priority 1999, dated 2001).

How the values were obtained:
[1] = test system: lung cancer cells (line MV522); assay: Cancer cell proliferation (MV522) assay; type: cell-based; details: MV522, read-out: MV522 IC50 (µM)

## O=C(NCc1cccc(F)c1)c1ccccc1Sc1ccc2c(/C=C/c3ccccn3)n[nH]c2c1 [35 (ff)]
mouse, in vivo, ip, 25 mg/kg, pH 2.3
  T1/2: 1.7 h

## O=C(Nc1cccc(Oc2ccc3c(/C=C/c4c[nH]cn4)n[nH]c3c2)c1)c1ccccc1 [Reference Example 32(a), 6-[3-benzamidophenoxy]-3-E-[2-(1H-imidazol-4-yl)ethenyl]-1H-indazole]
IP, 25 mg/kg, vehicle PEG400:H2O pH 2.3 30:70
  T1/2: 3.7 h
PO, 50 mg/kg, vehicle PEG400:H2O pH 2.3 30:70
  T1/2: 1.1 h

## Cc1ccc2cc(NC(=O)c3ccccc3Sc3ccc4c(/C=C/c5ccccn5)n[nH]c4c3)ccc2n1 [Reference Example 33(b)]
[1]
  IC50: 15 µM

## Cc1ccc2cc(NC(=O)c3ccccc3Sc3ccc4c(/C=C/c5ccccc5)n[nH]c4c3)ccc2n1 [Reference Example 38(a), 6-[2-(2-Methylquinol-6-ylcarbamoyl)phenylsulfanyl]-3-E-(2-styryl)-1H-indazole]
[1]
  IC50: 10.7 µM

Like-named read-outs stand apart in the source and are kept apart here.
